These are literature values, as cited in patent US5266561A, “Treatment of type 2 diabetes mellitus” (Amylin Pharmaceuticals, Inc., priority 1991, dated 1993).

This series concerns rat islet cells. Conditions: literature statement; cited from earlier work.

“calcitonin gene related peptide (ACDTATCVTHRLAGLLSRSGGVVKNNFVPTNVGSKAF; Calcitonin gene-related peptide 1; UniProt P06881 83-119, looked up) [CGRP, calcitonin gene related peptide, amylin agonist]”: the “inhibition of the insulin secretory response of islet B-cells to glucose” value was “potent inhibitor”.
